Only some compounds are listed: those with a hit (about 2.2% of all), similar ones and a draw of the others.
PDI turbidity: PDI (human) enzyme inhibition | P07237 | PDI insulin aggregation turbidity, A650, 90 min | inhibition, % at 10 µM | actives 0.052% (n = 350,000) | AID 588391;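 active = mean inhibition across replicates of 30% or more, whatever share of single replicates reach that level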
SIRT5 inh: blocks human SIRT5 desuccinylation of peptide; Purified SirT5, succinyl-peptide AMC, trypsin-coupled fluorescence; inhibition, % at 15 µM; actives 1.1% (n = 330,000); in the data active = inhibition above about 15%
S100A4 MyoIIA: inhibitors of human S100A4 binding to myosin IIA peptide. P26447. S100A4/TAMRA-MyoIIA peptide fluorescence polarization. inhibition, % at 10.7 µM. actives 0.14% (n = 360,000). AID 652163;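 active = mean inhibition of at least 70% across replicates, with every replicate also reaching that level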
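incubation = readout 5 min after mixing, signal stable up to 60 min | system = S100A4 monomer protein | buffer or medium = HEPES pH 7.2 with CaCl2, KCl, NaCl, DTT, Triton | benchmarks = neutral control DMSO, positive control TFP | also added = fluorescent myosin IIA peptide, 5 nM | compound dosing = one concentration per compound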
FGF22 binding: shifts melting point of recombinant human FGF22; Q9HCT0; recombinant FGF22 thermal shift, SYPRO orange fluorescence; percent of sucrose octasulfate shift, DMSO zero; activity (Tm shift, normalised), % at 9.99 µM; actives 1.5% (n = 340,000);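 active = mean Tm shift, scaled 0 neutral to 100 positive control, at about 1.3% or above, every replicate too, limit read from the data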
ERp5 block: blocks human ERp5 reductase activity on insulin. ERp5 insulin aggregation, absorbance 650 nm, 90 min. inhibition, % at 9.99 µM. Q15084. AID 651711. actives 0.05% (n = 350,000);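 active = mean replicate inhibition above about 25%, with every replicate also reaching it, limit read from the data, passing the limit was not always enough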
Yeast UUG start: modulators of yeast start codon fidelity, primary screen, whole organism, S. cerevisiae, single point, plate reader; S. cerevisiae UUG-firefly luciferase reporter, luminescence/redox ratio; activity score, % at 18.7 µM; actives 0.13% (n = 350,000);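 active means replicate mean at a twofold rise or more, about +100% in these data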;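 further: firefly luciferase made from a UUG start codon reports start codon fidelity; reporter light over untreated wells divided by growth signal over untreated wells; some hits fall short of that in this replicate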
Starred values were filed as active, the others as inactive.

What do the screens show for `CC(=O)Nc1ccc(C=NNc2ccc([N+](=O)[O-])cc2S(=O)(=O)Nc2ccccc2C(=O)O)cc1`?
PDI turbidity: 19; SIRT5 inh: 26*; S100A4 MyoIIA: -2; FGF22 binding: 0; ERp5 block: -1; Yeast UUG start: -11

Results for Cc1ccc(NC(=S)NNc2ccc([N+](=O)[O-])cc2S(=O)(=O)Nc2ccccc2C(=O)O)cc1C ?
PDI turbidity: 11; Yeast UUG start: -20

What do the screens show for `COc1cc(C=NNc2ccc(S(=O)(=O)Nc3ccccc3C(=O)O)cc2[N+](=O)[O-])ccc1O`?
PDI turbidity: 19; SIRT5 inh: 22*; S100A4 MyoIIA: 1; FGF22 binding: 1; ERp5 block: -16; Yeast UUG start: -4

Results for CN(CCO)c1ccc(C=NNc2ccc([N+](=O)[O-])cc2S(=O)(=O)Nc2ccccc2C(=O)O)cc1 ?
PDI turbidity: 17; SIRT5 inh: 22*; S100A4 MyoIIA: -11; ERp5 block: -2; Yeast UUG start: 5

Results for CO[C@H]1CN(C)C(=O)c2ccc(NS(=O)(=O)c3ccc(-c4ccccc4)cc3)cc2OC[C@H](C)NC[C@@H]1C ?
SIRT5 inh: -2; S100A4 MyoIIA: 1; FGF22 binding: 0; ERp5 block: 10

What do the screens show for `COc1ccc(-c2ccc([C@@H]3[C@@H](CO)N4C(=O)CN(C(=O)Cc5ccccn5)C[C@@H]34)cc2)cc1`?
SIRT5 inh: -5; ERp5 block: -2

How did CN1CCN(C(=O)[C@@H]2[C@@H](CO)[C@@H]3Cn4c(ccc(-c5cncnc5)c4=O)[C@@H]3N2CC2CC2)CC1 do in these assays?
SIRT5 inh: 3; S100A4 MyoIIA: 11; FGF22 binding: 0; ERp5 block: -3

Results for CC(=O)Nc1cccc(/C(C)=N/Nc2ccc(S(=O)(=O)Nc3ccccc3C(=O)O)cc2[N+](=O)[O-])c1 ?
PDI turbidity: 5; SIRT5 inh: 21*; S100A4 MyoIIA: -12; FGF22 binding: 0; ERp5 block: 3; Yeast UUG start: -4

How did COc1cccc(C(C)=NNc2ccc([N+](=O)[O-])cc2[N+](=O)[O-])c1OC do in these assays?
PDI turbidity: -8; SIRT5 inh: -4; S100A4 MyoIIA: 8; FGF22 binding: 0; ERp5 block: 0; Yeast UUG start: -16

How did COc1ccc(C(C)=NNc2ccc([N+](=O)[O-])cc2S(=O)(=O)Nc2ccccc2C(=O)O)c(OC)c1 do in these assays?
PDI turbidity: -71; SIRT5 inh: 15*; S100A4 MyoIIA: 1; ERp5 block: -2; Yeast UUG start: 4

Results for O=C(O)c1ccccc1NS(=O)(=O)c1ccc(N/N=C/c2cccc(O)c2O)c([N+](=O)[O-])c1 ?
PDI turbidity: 0; SIRT5 inh: 13; S100A4 MyoIIA: -8; FGF22 binding: 0; ERp5 block: 5; Yeast UUG start: -2

Results for CC(=O)Nc1ccc(C=NNc2ccc(S(=O)(=O)Nc3ccccc3C(=O)O)cc2[N+](=O)[O-])cc1 ?
PDI turbidity: 2; SIRT5 inh: 17*; S100A4 MyoIIA: 1; ERp5 block: 3; Yeast UUG start: -13

Part of the list above in order of formula weight, low to high.
Results for O=C(O)c1ccccc1NS(=O)(=O)c1ccc(N/N=C/c2cccc(O)c2O)c([N+](=O)[O-])c1 ?
PDI turbidity: 0; SIRT5 inh: 13; S100A4 MyoIIA: -8; FGF22 binding: 0; ERp5 block: 5; Yeast UUG start: -2

Results for CN(CCO)c1ccc(C=NNc2ccc([N+](=O)[O-])cc2S(=O)(=O)Nc2ccccc2C(=O)O)cc1 ?
PDI turbidity: 17; SIRT5 inh: 22*; S100A4 MyoIIA: -11; ERp5 block: -2; Yeast UUG start: 5

Results for Cc1ccc(NC(=S)NNc2ccc([N+](=O)[O-])cc2S(=O)(=O)Nc2ccccc2C(=O)O)cc1C ?
PDI turbidity: 11; Yeast UUG start: -20

(next part)
What do the screens show for `CCCN1[C@@H]2Cn3c(ccc(-c4ccc(F)cc4)c3=O)[C@H]1[C@@H](C(=O)NCCc1cn(C)cn1)[C@@H]2CO`?
FGF22 binding: 0; ERp5 block: 1

How did CC(=O)N1CCn2c3c(c4cc(C)ccc42)CCCC31 (stereo unspecified) do in these assays?
PDI turbidity: 7; SIRT5 inh: -2; S100A4 MyoIIA: -10; FGF22 binding: 43*; ERp5 block: -9; Yeast UUG start: 1

Results for CCN1CCn2c3c(c4cc(C)ccc42)CCCC31 (stereo unspecified) ?
PDI turbidity: -1; Yeast UUG start: -10

What do the screens show for `Cc1ccc2c(c1)c1c3n2CCN(C(=O)CCl)C3CCC1` (stereo unspecified)?
PDI turbidity: 59*; SIRT5 inh: -6; S100A4 MyoIIA: -9; FGF22 binding: 0; ERp5 block: 3; Yeast UUG start: -30
